Tested on: BEAS-2B
Experiment: Proliferative effects of EP and its metabolic derivatives (WST-8)
Format: cell-based, human

OCCN(CCO)CCO
animal cell proliferation without serum or growth factors: not obtained

From patent publication US20150164762A1, “USE OF ETHANOLAMINE PHOSPHATE” (priority 2012, published 2015)
